# Apparent affinities of Ab-95 variants for a coronavirus HR2 peptide

The target is the same throughout: PDVDLGDISGINAS, from the HR2 region of SARS-CoV-2 spike.

The variants keep the heavy chain, the linker and the frameworks of Ab-95 (scFv order VH, the linker GGGGSGGGGSGGGGS, VL).
VH: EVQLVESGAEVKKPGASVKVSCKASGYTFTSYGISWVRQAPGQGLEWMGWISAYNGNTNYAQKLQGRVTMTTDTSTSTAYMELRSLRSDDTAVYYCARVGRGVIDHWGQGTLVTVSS
VL: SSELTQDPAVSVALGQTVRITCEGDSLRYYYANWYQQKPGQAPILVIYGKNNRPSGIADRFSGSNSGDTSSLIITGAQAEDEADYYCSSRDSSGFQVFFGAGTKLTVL

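Phage display of a naive human antibody library on the peptide gave the parent. The library (AAYL52) carries one to three amino acid substitutions per variant, with no insertions or deletions. The scFvs were displayed on barcoded MATa yeast, the peptide on MATalpha yeast. The frequency of each diploid, read from paired DNA barcodes, reflects how well the two displayed proteins bind. Scores were corrected for input abundance and mapped to Kd with protein pairs of known affinity run in the same pool. Each pool was mated in three replicate cultures.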

Positions count from residue 1 of the parent VL; D25E puts E in place of D.
Every variant below is changed at R53 of the VL (sequential numbering).
Each Kd is an estimate from the mating assay, the geometric mean of the replicates in which the pair was seen; lower is stronger.
An entry "no signal" has no value in the source: the pair was not observed among the diploids in any replicate. This suggests poor binding but is not conclusive.
Entries are sorted by rising average, undetected variants last.
Background: pairings of library AAYL52 with three empty control strains gave a value in 28% of cases (median 8.2 µM, 5th percentile 800 nM). Values in that range, when seen in few replicates, are hard to tell from nonspecific mating. The control count says in how many pairings with the empty strains this scFv gave a signal.

- D25E+Y30E+R53A = 25 nM (3 of 3 replicates; controls 5 of 9)
- N52H+R53N = 49 nM (3 of 3 replicates; controls 0 of 9)
- E23R+R28A+R53V = 57 nM (3 of 3 replicates; controls 4 of 9)
- Y30A+R53L+F98C = 66 nM (3 of 3 replicates; controls 6 of 9)
- Y31N+N52P+R53H = 110 nM (3 of 3 replicates; controls 0 of 9)
- R53K+Q96W+F98S = 190 nM (3 of 3 replicates; controls 2 of 9)
- R53I = 260 nM (3 of 3 replicates; controls 2 of 9)
- Y31N+N52K+R53G = 270 nM (3 of 3 replicates; controls 0 of 9)
- R28K+Y30K+R53M = 380 nM (3 of 3 replicates; controls 5 of 9)
- R53L = 530 nM (3 of 3 replicates; controls 1 of 9)
- G24D+Y29R+R53K = 670 nM (3 of 3 replicates; controls 3 of 9)
- R53L+Q96M = 690 nM (3 of 3 replicates; controls 2 of 9)
- R53L+P54M = 870 nM (3 of 3 replicates; controls 4 of 9)
- R53A+P54M+F98C = 1.1 µM (3 of 3 replicates; controls 3 of 9)
- A32T+R53H = 1.2 µM (3 of 3 replicates; controls 4 of 9)
- E23Q+R53A+S92G = 1.3 µM (3 of 3 replicates; controls 2 of 9)
- Y31R+R53V+S88V = 1.9 µM (1 of 3 replicates; controls 2 of 9)
- G24A+R53I+S88T = 3.0 µM (3 of 3 replicates; controls 5 of 9)
- G24S+R53C+F98I = 4.1 µM (1 of 3 replicates; controls 2 of 9)
- N52R+R53F+F95Q = 4.3 µM (3 of 3 replicates; controls 3 of 9)
- L27S+R53I+F95E = 4.7 µM (3 of 3 replicates; controls 2 of 9)
- Y29A+R53H+P54S = 6.5 µM (1 of 3 replicates; controls 1 of 9)
- D25C+R53F+S92R = 6.5 µM (3 of 3 replicates; controls 4 of 9)
- R53Y+V97C+F98G = 6.7 µM (2 of 3 replicates; controls 4 of 9)
- R28V+K50M+R53A = 7.0 µM (3 of 3 replicates; controls 3 of 9)
- D25H+S26T+R53H = 8.4 µM (3 of 3 replicates; controls 4 of 9)
- Y30V+N33Q+R53P = 9.3 µM (2 of 3 replicates; controls 3 of 9)
- Y29M+R53C+S92M = 13 µM (3 of 3 replicates; controls 4 of 9)
- N51K+R53M+P54T = 14 µM (1 of 3 replicates; controls 3 of 9)
- S26W+R53Q+Q96S = 15 µM (2 of 3 replicates; controls 5 of 9)
- S26I+G49W+R53A = 15 µM (2 of 3 replicates; controls 5 of 9)
- N33C+R53C+V97R = 15 µM (2 of 3 replicates; controls 4 of 9)
- R53Q+P54C+R90V = 15 µM (2 of 3 replicates; controls 5 of 9)
- R53P+S89I = 31 µM (2 of 3 replicates; controls 5 of 9)
- Y29I+R53C+F98V = 32 µM (1 of 3 replicates; controls 2 of 9)
- E23I+L27P+R53D = 34 µM (2 of 3 replicates; controls 2 of 9)
- S26N+K50R+R53M = 34 µM (2 of 3 replicates; controls 2 of 9)
- A32E+R53F+Q96Y = 41 µM (2 of 3 replicates; controls 4 of 9)
- Y30P+R53I+V97M = 51 µM (2 of 3 replicates; controls 2 of 9)
- L27F+R53F+P54G = 76 µM (1 of 3 replicates; controls 2 of 9)
- E23H+G24I+R53P = 88 µM (1 of 3 replicates; controls 5 of 9)
- Y31H+A32Y+R53D = 190 µM (1 of 3 replicates; controls 4 of 9)
- G49R+R53K+Q96R = 420 µM (1 of 3 replicates; controls 1 of 9)
- L27I+R53E+D91M = no signal (0 of 3 replicates; controls 3 of 9)
- N52T+R53F+Q96T = no signal (0 of 3 replicates; controls 2 of 9)
- G49H+R53I+F95A = no signal (0 of 3 replicates; controls 3 of 9)
- R53N+G94L = no signal (0 of 3 replicates; controls 3 of 9)
- L27V+R53G+F95W = no signal (0 of 3 replicates; controls 1 of 9)

Repeated from above, the 6 best binders with a signal in all replicates:

changes	Kd (apparent)	detected	control signals
D25E+Y30E+R53A	25 nM	3/3	5/9
N52H+R53N	49 nM	3/3	0/9
E23R+R28A+R53V	57 nM	3/3	4/9
Y30A+R53L+F98C	66 nM	3/3	6/9
Y31N+N52P+R53H	110 nM	3/3	0/9
R53K+Q96W+F98S	190 nM	3/3	2/9

Reference: Engelhart et al. 2022, doi:10.1038/s41597-022-01779-4. File: FLAb, binding data.